According to ChEMBL document CHEMBL5579863, “Galectin-8N-Selective 4-Halophenylphthalazinone-Galactals Double π-Stack in a Unique Pocket” (ACS Med Chem Lett, 2024):

Assays:
[1] = Chemical stability in ammonium acetate buffer at pH 4 upto 100 uM and measured upto 120 hrs by LC-UV analysis; type: physicochemical; details: pH 4, 120 h
[2] = Chemical stability in ammonium acetate buffer at pH 9.5 upto 100 uM and measured upto 120 hrs by LC-UV analysis; type: physicochemical; details: pH 9.5, 120 h

SMILES | Stability [1] | Stability [2]
O=c1c2ccccc2c(-c2ccccc2)nn1CO[C@@H]1C=CO[C@H](CO)[C@@H]1O | Stable | Stable
O=c1c2ccccc2cnn1CO[C@@H]1C=CO[C@H](CO)[C@@H]1O | Stable | Stable
Cc1ccc(-c2nn(CO[C@@H]3C=CO[C@H](CO)[C@@H]3O)c(=O)c3ccccc23)cc1 | Stable | Stable
O=c1c2ccccc2c(-c2ccc(Cl)c(Cl)c2)nn1CO[C@@H]1C=CO[C@H](CO)[C@@H]1O | Stable | Stable
